Measured values: PubChem BioAssay AID588382 (National Center for Advancing Translational Sciences (NCATS), 2011)
The list shows a part of the results, in another mix than the full data. Records with an inconclusive call do not appear. Activity calls are given as the source filed them. Calls follow the shape of the dose curve; as a rule, active = well fitted cell-killing curve with a large enough effect; inconclusive = small, poorly fitted or top-dose-only effect, or effect the other way; inactive = flat fitted curve, though single readings scatter.

Assay: qHTS of small molecules that selectively kill Giardia lamblia: Hit Validation in HepG2 cytotox;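 also: compound exposure lasted overnight at 37 deg C; nearly all actives have a fitted effect of over 55% in size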;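 as to activity change, negative = cytotoxicity: viability measured as cellular ATP by ATPLite luminescence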
Conditions: cell viability; Potency: HepG2 cytotoxicity; series mostly up to 38.3 µM; activity change, negative = cytotoxicity: at the top concentration
From the text: Giardia lamblia is a human pathogen afflicting impoverished nations, and the most common cause of outbreaks of diarrhea in the United States. Giardia has been classified by the CDC as a category B bioterrorism organism. The favored anti giardiasis drugs in the US are metronidazole or tinidazole, compounds that have undesirable side effects. Moreover, increasing resistance to drug regimes and recurrence are a concern. It is thus clear that alternative drug treatments are needed.
In a collaboration between the University of Maryland, College Park and the NIH Chemical Genomics Center, a bioluminescence Giardia viability assay based on the trophozoites' ATP content was developed. This assay is suitable for high throughput screening, and miniaturized the assay for compound screening in 1536-well plates. The goal of the project is to screen the Molecular Libraries Small Molecule Repository (MLSMR) for compounds that selectively kill Giardia trophozoites. This counterscreen looks at the toxicity of the compounds against the human HepG2 cell line.
NIH Chemical Genomics Center [NCGC]
NIH Molecular Libraries Probe Centers Network [MLPCN]
Assay Submitter (PI): Osnat Herzberg, University of Maryland, College Park, MD.
4 uL of HepG2 cells ae dispensed into white 1536-well plates. They are incubated overnight at 37 deg C and then 23 nL of compounds are transferred to the wells with a pintool. Plates are incubated overnight at 37 deg C. 2 uL of ATPLite is added and the plates are incubated for 15 min at room temperature before they are read on the ViewLux for luminiescence.
% is scaled to controls: 0 for no effect and ±100 for the full control effect; potency is read from the fitted curve at half-maximal effect.

SMILES	activity change, negative = cytotoxicity	Potency
O=C(Nc1ccncc1[N+](=O)[O-])c1ccc([N+](=O)[O-])cc1[N+](=O)[O-]	inactive: 8.43%	–
COc1cc(I)ccc1[As](=O)(O)O	inactive: 10.7%	–
O=[As](O)(c1cccs1)c1cccs1	inactive: 13%	–
Nc1cccc([As](=O)(O)c2ccccc2)c1	inactive: -8.38%	–
Nc1ccc([As](=O)(O)c2ccc([N+](=O)[O-])cc2)cc1	inactive: 21.1%	–
O=c1c2cc([N+](=O)[O-])ccc2[nH]c2c([N+](=O)[O-])cc([N+](=O)[O-])cc12	–	active: 1.65 µM
O=[N+]([O-])c1cc([N+](=O)[O-])c2nc[nH]c2c1	inactive: 9.25%	–
NC(=O)c1cc([N+](=O)[O-])cc([N+](=O)[O-])c1N	inactive: 18.5%	–
